# Reference: ChEMBL document CHEMBL4477213, “Discovery and Optimization of Quinazolinone-pyrrolopyrrolones as Potent and Orally Bioavailable Pan-Pim Kinase Inhibitors” (J Med Chem, 2016)
# Protein sequences, listed by entry. Tags and fused reporters are not part of them. Lines headed by an entry give the natural chain unless they say otherwise; changes in a name come on top.
# UniProt Q9P1W9: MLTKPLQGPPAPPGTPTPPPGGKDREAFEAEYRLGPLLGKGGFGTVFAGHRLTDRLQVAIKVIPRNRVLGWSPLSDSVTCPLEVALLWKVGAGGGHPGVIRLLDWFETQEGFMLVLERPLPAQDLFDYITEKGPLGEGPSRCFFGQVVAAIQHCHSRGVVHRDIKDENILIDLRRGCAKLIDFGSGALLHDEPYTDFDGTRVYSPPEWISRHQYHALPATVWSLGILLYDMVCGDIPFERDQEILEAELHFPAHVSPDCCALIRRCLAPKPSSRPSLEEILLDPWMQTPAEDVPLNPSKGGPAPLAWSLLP
# UniProt P11309, whole entry: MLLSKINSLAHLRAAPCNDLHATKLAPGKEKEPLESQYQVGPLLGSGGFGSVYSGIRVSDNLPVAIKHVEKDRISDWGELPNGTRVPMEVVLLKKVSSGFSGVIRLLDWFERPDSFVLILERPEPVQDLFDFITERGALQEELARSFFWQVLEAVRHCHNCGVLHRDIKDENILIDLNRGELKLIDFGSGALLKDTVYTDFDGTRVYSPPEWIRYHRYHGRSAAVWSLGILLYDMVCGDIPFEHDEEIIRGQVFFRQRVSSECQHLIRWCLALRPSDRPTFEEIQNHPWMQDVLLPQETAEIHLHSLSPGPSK
# Legend:
# [1] = biological target: Serine/threonine-protein kinase pim-2 (Homo sapiens, UniProt Q9P1W9); experiment: Inhibition of full length recombinant Pim-2 (unknown origin) assessed as reduction in phosphorylation of biotinylated-BAD peptide at Serine 112 residue preincubated for 30 mins followed by substrate addition for 1 hr by HTRF assay
# [2] = biological target: Serine/threonine-protein kinase pim-1 (Homo sapiens, UniProt P11309)
# [3] = biological target: Serine/threonine-protein kinase PIM (Homo sapiens, UniProt P11309+Q9P1W9+Q86V86); settings: kms-12-bm
SMILES,IC50 [1],IC50 [2],IC50 [3]
C[C@H]1NC(=O)c2cc(-c3c(F)ccc4c(=O)n(C)c(NC(C)(C)C)nc34)[nH]c21,0.1 nM,0.1 nM,26 nM
Cc1nc2cccc(-c3cc4c([nH]3)[C@H](C)NC4=O)c2nc1NC(C)(C)C,1.8 nM,1.6 nM,65 nM
Cc1nc2cccc(-c3[nH]c4c(c3Cl)C(=O)N[C@@H]4C)c2nc1NC(C)(C)C,1 nM,0.5 nM,407 nM
Cc1nc2cccc(-c3cc4c([nH]3)[C@@H](C)NC4=O)c2nc1NC(C)(C)C,1 nM,–,–
